# AlphaSeq binding of Ab-95 light chain variants to a spike HR2 peptide

Source: Engelhart et al. 2022 (doi:10.1038/s41597-022-01779-4), MIT Lincoln Laboratory and A-Alpha Bio; data file from the FLAb repository.

Target: peptide PDVDLGDISGINAS, taken from heptad repeat 2 (HR2) of SARS-CoV-2 spike.

Parent scFv Ab-95: VH joined to VL by a (GGGGS)3 linker. Changes lie in the light chain CDRs alone.
VH: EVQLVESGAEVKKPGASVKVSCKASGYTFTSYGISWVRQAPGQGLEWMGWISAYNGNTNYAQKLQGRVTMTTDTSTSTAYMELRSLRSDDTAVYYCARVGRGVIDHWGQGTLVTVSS
VL: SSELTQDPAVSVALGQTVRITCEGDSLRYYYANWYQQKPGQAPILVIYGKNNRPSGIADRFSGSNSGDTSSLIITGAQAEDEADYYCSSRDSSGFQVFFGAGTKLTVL

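The starting antibody came from a phage panning campaign against this peptide. The library (AAYL52) carries one to three amino acid substitutions per variant, with no insertions or deletions. In AlphaSeq, yeast of one mating type display the scFv and yeast of the other type display the target. Mating (16 h, 30 °C) was followed by selection of diploids and sequencing of their barcodes. Read counts were normalised to the haploid input and turned into Kd by a linear fit to BCL2-family pairs of known affinity, for each replicate. The assay was run in three technical replicates.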

Substitutions are numbered in sequence along the VL above, starting at 1 (not Kabat).
Every variant below is changed at F98 of the VL (sequential numbering).
The read-out is the apparent dissociation constant on a log10 scale (nM): the lower, the stronger.
Replicates are averaged; those with no signal do not enter the mean.
An entry "nd" has no value in the source: the pair was not observed among the diploids in any replicate. This suggests poor binding but is not conclusive.
Order: sorted from the lowest average up, undetected variants last.
Three control strains display no target. For library AAYL52, 28% of the pairings with them gave a signal, with a median of 3.91 and one signal in twenty below 2.90, so weak values seen in few replicates may be background. For each scFv, signals with the empty controls are counted beside the result.

* Y30S+F98G -> 1.23 (3 of 3 replicates; controls 5 of 9)
* E23G+F98T -> 1.83 (3 of 3 replicates; controls 4 of 9)
* K50E+F98G -> 2.18 (3 of 3 replicates; controls 6 of 9)
* S55K+S92V+F98I -> 2.26 (3 of 3 replicates; controls 1 of 9)
* S92Y+F95V+F98L -> 2.27 (3 of 3 replicates; controls 2 of 9)
* E23T+R28G+F98E -> 2.28 (3 of 3 replicates; controls 1 of 9)
* K50R+N52I+F98E -> 2.28 (3 of 3 replicates; controls 2 of 9)
* S88W+G94S+F98T -> 2.37 (3 of 3 replicates; controls 2 of 9)
* E23K+D91E+F98V -> 2.52 (3 of 3 replicates; controls 3 of 9)
* E23F+K50R+F98Y -> 2.62 (3 of 3 replicates; controls 1 of 9)
* G24M+Y29G+F98I -> 2.75 (3 of 3 replicates; controls 1 of 9)
* Y31D+P54K+F98Q -> 3.00 (3 of 3 replicates; controls 1 of 9)
* G49F+V97Y+F98T -> 3.03 (1 of 3 replicates; controls 1 of 9)
* G49Y+F95V+F98G -> 3.17 (1 of 3 replicates; controls 2 of 9)
* D25G+R28Y+F98W -> 3.28 (2 of 3 replicates; controls 2 of 9)
* Y30M+K50N+F98D -> 3.37 (1 of 3 replicates; controls 4 of 9)
* D25W+S89T+F98K -> 3.49 (3 of 3 replicates; controls 4 of 9)
* L27R+F98S -> 3.58 (1 of 3 replicates; controls 1 of 9)
* E23N+R90G+F98C -> 3.58 (3 of 3 replicates; controls 4 of 9)
* S26I+Y30I+F98E -> 3.60 (3 of 3 replicates; controls 3 of 9)
* R53C+S93R+F98M -> 3.67 (2 of 3 replicates; controls 4 of 9)
* R28H+F98V -> 3.69 (3 of 3 replicates; controls 0 of 9)
* L27D+F95M+F98M -> 3.75 (2 of 3 replicates; controls 4 of 9)
* S89W+D91W+F98H -> 3.86 (1 of 3 replicates; controls 1 of 9)
* S55K+V97R+F98Q -> 3.91 (3 of 3 replicates; controls 2 of 9)
* D25E+F98I -> 3.92 (2 of 3 replicates; controls 3 of 9)
* G24P+Y29F+F98G -> 3.95 (1 of 3 replicates; controls 2 of 9)
* R28N+N51P+F98P -> 3.97 (2 of 3 replicates; controls 5 of 9)
* L27W+S93H+F98P -> 4.00 (2 of 3 replicates; controls 0 of 9)
* D25Q+S26K+F98T -> 4.44 (2 of 3 replicates; controls 3 of 9)
* R90Y+F95R+F98S -> 4.50 (2 of 3 replicates; controls 1 of 9)
* Y31T+R53Y+F98N -> 4.68 (2 of 3 replicates; controls 0 of 9)
* S89N+R90V+F98S -> 4.74 (2 of 3 replicates; controls 4 of 9)
* N33P+V97L+F98N -> 4.75 (2 of 3 replicates; controls 2 of 9)
* S26K+V97S+F98N -> 4.79 (2 of 3 replicates; controls 2 of 9)
* G49F+N52Y+F98P -> 5.78 (1 of 3 replicates; controls 5 of 9)
* G94Q+F98V -> nd (0 of 3 replicates; controls 1 of 9)
* S88E+D91W+F98K -> nd (0 of 3 replicates; controls 0 of 9)
* R28C+S55E+F98S -> nd (0 of 3 replicates; controls 1 of 9)
* R28F+N52T+F98K -> nd (0 of 3 replicates; controls 2 of 9)
* N33E+F98M -> nd (0 of 3 replicates; controls 0 of 9)
* K50Y+S93Y+F98K -> nd (0 of 3 replicates; controls 2 of 9)
* Y30F+S89H+F98K -> nd (0 of 3 replicates; controls 1 of 9)
* Y31L+R90P+F98V -> nd (0 of 3 replicates; controls 3 of 9)
* A32Y+F95V+F98Y -> nd (0 of 3 replicates; controls 3 of 9)